Values of other authors in patent US6576670B1, “Use of a 5HT2A and 5HT2A/C receptor antagonist for treating snoring and high resistance syndrome of upper anatomical airways” (Sanofi—Synthelabo, priority 1998, dated 2003).

How the values were obtained:
5HT2 receptor = conditions: rats; cited from earlier work
5HT2 receptors = conditions: administered systemically; English bulldog; cited from earlier work

Compound: CC[C@@H](CO)NC(=O)[C@@H]1C=C2c3cccc4c3c(cn4C)C[C@H]2N(C)C1 [methysergide]
- increase in pulmonary resistance induced by 5-HT (5HT2 receptor): inhibit
- activity of the diaphragm (5HT2 receptors): slight reduction
- activity of the dilatory muscle of the upper respiratory tracts (5HT2 receptors): marked reduction
